Values quoted from earlier work, collected in patent publication US10813929B2, “Treating cancer with ATR inhibitors” (VERTEX PHARMACEUTICALS INCORPORATED, priority 2011, dated 2020).

System: pancreatic cancer
Conditions: combined with gemcitabine, cited from earlier work

cetuximab
overall survival (versus 5.91 months): 6.24 months
clinical benefit: no clinical benefit
